Data taken from publication PMC12523003, “Interplay between malic enzyme 2, de novo serine synthesis, and the malate-aspartate shuttle drives metabolic adaptation in triple-negative breast cancer” (Cancer & Metabolism, 2025).

The chains behind the UniProt entries cited, without tags or fusion partners. Residues count along the entry.
UniProt P23368, 19-584: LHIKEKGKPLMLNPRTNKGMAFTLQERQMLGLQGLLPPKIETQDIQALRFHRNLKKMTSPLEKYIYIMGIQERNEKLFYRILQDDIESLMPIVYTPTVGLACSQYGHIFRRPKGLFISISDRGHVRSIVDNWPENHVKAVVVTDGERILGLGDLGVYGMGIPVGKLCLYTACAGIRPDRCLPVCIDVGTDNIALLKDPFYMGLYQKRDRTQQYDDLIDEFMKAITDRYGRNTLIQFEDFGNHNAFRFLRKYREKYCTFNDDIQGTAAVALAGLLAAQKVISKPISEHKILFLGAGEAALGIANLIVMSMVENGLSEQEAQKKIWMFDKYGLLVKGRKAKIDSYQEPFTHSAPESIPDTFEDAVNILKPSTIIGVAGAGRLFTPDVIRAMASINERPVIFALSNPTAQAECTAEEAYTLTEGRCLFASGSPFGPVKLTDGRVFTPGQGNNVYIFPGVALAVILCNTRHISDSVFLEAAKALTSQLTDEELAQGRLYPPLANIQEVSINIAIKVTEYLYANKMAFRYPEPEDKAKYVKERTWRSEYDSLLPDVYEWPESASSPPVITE

Molecular target: Malic enzyme 2 (ME2) (Homo sapiens, UniProt P23368)

SMILES: NC(=O)c1ccc[n+]([C@@H]2O[C@H](COP(=O)([O-])OP(=O)(O)OC[C@H]3O[C@@H](n4cnc5c(N)ncnc54)[C@H](O)[C@@H]3O)[C@@H](O)[C@H]2O)c1 [NAD^+]
- X-ray crystal structure of ME2/NAD+ holoenzyme at 1.89 Å: with NAD^+ located within each active site cavity and buried within the tetramer interface
